Values quoted from earlier work, collected in patent US5739158A, “Nitrogen-containing cyclohetero cycloalkylaminoaryl derivatives for CNS disorders” (The United States of America as represented by the …, priority 1992, dated 1998).

System: kappa opioid receptors
Conditions: B. R. de Costa et al, 1989; cited from earlier work

In the case of `CN(C(=O)Cc1ccc(Cl)c(Cl)c1)[C@@H]1CCCC[C@H]1N1CCCC1` (relative stereo), the “Selectivity for kappa opioid receptors (in words)” value is given as “highly selective ligand for kappa opioid receptors”.
